Test results reported in US20160287666A1 (priority 2015, published 2016).

The chains behind the UniProt entries cited, without tags or fusion partners. Where a name states a change or a piece, a line headed by the entry shows the natural chain unless it says otherwise.
UniProt Q9UQD0, whole entry: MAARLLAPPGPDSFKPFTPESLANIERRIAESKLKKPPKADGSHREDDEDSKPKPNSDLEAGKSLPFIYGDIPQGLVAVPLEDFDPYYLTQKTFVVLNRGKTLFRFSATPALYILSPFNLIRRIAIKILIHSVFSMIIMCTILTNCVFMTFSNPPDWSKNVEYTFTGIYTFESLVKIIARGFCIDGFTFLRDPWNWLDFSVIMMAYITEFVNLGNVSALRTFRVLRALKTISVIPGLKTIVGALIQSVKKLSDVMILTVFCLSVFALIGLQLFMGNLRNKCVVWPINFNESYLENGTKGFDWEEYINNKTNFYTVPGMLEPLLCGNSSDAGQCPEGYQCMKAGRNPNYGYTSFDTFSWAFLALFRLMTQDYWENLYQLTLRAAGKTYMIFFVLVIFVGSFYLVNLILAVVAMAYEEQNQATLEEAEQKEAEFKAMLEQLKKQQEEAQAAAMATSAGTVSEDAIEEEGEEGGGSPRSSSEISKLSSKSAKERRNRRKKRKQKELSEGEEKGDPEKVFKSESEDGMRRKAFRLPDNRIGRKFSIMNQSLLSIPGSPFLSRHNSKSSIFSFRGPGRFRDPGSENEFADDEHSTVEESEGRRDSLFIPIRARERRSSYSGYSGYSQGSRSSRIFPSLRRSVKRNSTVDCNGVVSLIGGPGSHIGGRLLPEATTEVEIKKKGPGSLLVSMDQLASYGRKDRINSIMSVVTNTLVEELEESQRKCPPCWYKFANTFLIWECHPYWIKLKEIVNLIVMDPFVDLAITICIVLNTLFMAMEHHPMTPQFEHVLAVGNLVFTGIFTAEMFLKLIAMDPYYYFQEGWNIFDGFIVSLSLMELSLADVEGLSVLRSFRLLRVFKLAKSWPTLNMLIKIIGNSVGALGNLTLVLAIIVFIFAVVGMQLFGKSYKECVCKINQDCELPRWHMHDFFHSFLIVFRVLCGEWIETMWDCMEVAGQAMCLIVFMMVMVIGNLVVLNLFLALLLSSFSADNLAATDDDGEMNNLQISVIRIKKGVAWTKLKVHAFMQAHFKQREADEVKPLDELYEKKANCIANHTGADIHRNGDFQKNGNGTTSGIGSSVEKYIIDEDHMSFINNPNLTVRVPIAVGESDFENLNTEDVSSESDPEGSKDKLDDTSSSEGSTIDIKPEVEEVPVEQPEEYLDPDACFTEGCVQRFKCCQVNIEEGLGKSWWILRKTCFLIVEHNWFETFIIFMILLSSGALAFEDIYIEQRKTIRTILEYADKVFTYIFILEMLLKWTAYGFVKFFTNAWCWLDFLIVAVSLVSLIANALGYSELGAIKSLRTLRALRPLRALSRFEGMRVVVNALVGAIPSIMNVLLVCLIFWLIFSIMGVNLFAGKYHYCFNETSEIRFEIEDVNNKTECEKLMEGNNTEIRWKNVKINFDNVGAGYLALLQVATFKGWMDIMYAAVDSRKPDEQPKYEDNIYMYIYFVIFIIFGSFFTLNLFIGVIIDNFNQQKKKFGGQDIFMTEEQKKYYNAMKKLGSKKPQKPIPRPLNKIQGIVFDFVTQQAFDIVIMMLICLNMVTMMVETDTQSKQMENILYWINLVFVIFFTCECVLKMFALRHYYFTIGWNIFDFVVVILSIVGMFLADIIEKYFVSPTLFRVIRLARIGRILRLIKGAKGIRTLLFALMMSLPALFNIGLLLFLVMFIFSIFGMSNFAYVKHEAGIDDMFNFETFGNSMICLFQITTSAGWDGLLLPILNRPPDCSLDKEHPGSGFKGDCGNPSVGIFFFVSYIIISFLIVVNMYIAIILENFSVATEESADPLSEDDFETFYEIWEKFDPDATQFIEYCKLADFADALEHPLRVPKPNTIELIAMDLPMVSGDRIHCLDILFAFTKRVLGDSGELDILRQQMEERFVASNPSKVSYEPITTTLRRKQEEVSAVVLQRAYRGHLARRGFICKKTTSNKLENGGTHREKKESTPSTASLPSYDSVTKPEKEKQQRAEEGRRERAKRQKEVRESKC
UniProt Q15858: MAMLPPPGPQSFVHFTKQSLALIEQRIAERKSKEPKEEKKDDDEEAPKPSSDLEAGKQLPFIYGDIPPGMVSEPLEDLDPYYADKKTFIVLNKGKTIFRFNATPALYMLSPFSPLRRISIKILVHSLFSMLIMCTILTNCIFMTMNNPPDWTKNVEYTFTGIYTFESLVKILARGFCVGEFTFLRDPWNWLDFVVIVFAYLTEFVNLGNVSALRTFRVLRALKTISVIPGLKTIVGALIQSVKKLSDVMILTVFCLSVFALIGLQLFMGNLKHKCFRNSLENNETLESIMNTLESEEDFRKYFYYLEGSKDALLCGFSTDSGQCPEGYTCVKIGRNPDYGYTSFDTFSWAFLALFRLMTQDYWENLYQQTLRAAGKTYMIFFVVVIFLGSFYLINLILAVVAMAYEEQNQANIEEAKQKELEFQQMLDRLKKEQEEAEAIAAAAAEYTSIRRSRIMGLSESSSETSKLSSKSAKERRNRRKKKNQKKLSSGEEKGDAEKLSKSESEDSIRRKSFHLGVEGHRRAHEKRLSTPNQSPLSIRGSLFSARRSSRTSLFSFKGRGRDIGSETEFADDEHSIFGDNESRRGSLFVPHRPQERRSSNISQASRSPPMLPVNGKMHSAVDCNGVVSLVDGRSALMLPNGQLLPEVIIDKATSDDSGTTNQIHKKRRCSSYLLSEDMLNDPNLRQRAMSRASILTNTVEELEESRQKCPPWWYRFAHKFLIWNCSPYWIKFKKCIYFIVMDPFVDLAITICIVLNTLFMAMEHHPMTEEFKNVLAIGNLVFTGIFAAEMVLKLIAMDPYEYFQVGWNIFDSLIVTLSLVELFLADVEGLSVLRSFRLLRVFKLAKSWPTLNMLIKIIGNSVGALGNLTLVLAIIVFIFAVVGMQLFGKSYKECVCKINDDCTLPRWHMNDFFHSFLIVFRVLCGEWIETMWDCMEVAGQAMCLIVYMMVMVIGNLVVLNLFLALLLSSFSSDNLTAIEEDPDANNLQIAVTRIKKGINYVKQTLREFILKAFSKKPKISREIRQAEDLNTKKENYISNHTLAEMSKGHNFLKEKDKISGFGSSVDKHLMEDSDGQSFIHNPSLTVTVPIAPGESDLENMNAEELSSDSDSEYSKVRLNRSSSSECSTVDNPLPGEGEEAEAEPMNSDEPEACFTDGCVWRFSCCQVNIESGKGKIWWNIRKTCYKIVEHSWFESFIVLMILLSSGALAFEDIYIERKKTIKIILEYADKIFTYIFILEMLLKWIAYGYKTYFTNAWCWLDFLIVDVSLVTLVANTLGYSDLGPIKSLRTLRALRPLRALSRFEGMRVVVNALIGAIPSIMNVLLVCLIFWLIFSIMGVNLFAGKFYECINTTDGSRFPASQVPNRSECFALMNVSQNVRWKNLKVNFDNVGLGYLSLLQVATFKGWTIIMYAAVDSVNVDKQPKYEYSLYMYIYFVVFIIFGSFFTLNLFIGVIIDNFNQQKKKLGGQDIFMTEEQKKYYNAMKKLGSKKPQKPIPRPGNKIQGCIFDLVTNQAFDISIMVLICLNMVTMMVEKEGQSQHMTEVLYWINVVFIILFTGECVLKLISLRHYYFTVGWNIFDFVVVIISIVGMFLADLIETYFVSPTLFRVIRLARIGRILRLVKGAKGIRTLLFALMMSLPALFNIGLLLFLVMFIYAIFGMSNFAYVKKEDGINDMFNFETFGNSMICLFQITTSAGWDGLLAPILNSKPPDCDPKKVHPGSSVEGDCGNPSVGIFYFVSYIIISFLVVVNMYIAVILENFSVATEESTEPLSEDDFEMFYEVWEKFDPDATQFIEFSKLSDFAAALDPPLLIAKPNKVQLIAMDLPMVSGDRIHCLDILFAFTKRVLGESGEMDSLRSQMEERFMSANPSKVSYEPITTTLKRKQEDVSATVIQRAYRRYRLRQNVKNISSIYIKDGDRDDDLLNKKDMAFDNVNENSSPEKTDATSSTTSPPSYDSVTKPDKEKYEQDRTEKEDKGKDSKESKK

The substances below were run against human Nav1.6 (Homo sapiens, UniProt Q9UQD0). Conditions: not given.
Assay type: cell-based

Substance	selectivity towards Nav1.7 compared to recombinant Protoxin-II
GPSCQKWMQTCDAERKCCEGFVCRLWCKKKLW-OH (cysteine pairing not given here) [NV1D2773]	improved selectivity

The substances below were run against human Nav1.7 (Homo sapiens, UniProt Q15858, W1161R). Conditions: read-out: Nav1.7 IC50.
Assay type: cell-based

Substance	IC50
GPQCQKWMQTCDRTRKCCEGFVCTLWCRKKLW-NH2 [NV1D3368-NH2]	20.5 nM
GPQCQKWMQTCDRERKCCEGFVCTLWCRKKLW-NH-butyl [NV1D3034-NH-butyl]	16.6 nM
GPQCQKWMQTCDRERKCCEGFVCTLWCRKKLW-NH2 [NV1D3034-NH2]	12.2 nM
Ac-QCQKWMQTCDRERKCCEGFVCTLWCRKKLW-NH2 [(-GP) N-Ac-NV1D3034-NH2]	7.63 nM
GPSCQKWFWTCDAERKCCEGLVCRLWCKKKLW-NH2 [NV1D2890-NH2]	9.12 nM
GPQCQKWMQTCDRERKCCEGFVCTLWCRKKLW-NH-methyl [NV1D3034-NH-methyl]	7.1 nM
Ac-QCQKWMQTCDAERKCCEGFSCTLWCKKKLW-NH2 [(-GP) N-Ac-NV1D2974-NH2]	6.43 nM
GPYCQKWMQTCDANRKCCEGFSCRLWCKKKLW-NH2 [NV1D3586-NH2]	4.23 nM
GPQCQKWMQTCDAERKCCEGFVCRLWCKKKLW-NH2 [NV1D2775-NH2]	5.06 nM

Ends that are not written are not given here.
